Key:
[1] = system: iPS cell-derived CAR-T cells; assay: Proliferation test: adding carnosine or α-tocopherol to serum-free expansion culture medium (Experimental Example 1-1); settings: result in words; for proliferation of iPS cell-derived CAR-T cells / survival rate of iPS cell-derived CAR-T cells: 20 mM carnosine or 100 µM α-tocopherol added to serum-free medium
Experimental: A total of three types of expansion culture media were prepared: a medium containing the components listed in Table 2 (hereinafter to be referred to as BM220720), and further, the additives listed in the "expansion culture medium 2" column in Table 1, and said medium added with 20 mM carnosine (Sigma-Aldrich) or 100 µM α-tocopherol (Sigma-Aldrich). As an experimental control, a medium was prepared by adding the additives listed in the "expansion culture medium 1" column in Table 1 to IMDM medium containing 15% FBS. After 3 days of activation culture, the cells were collected from the T225 flask and suspended in each of the four types of expansion culture media at 40,000 cells/mL, and cultured under 5% CO2/37°C using G-Rex (registered trademark) 6M (Wilson Wolf). Then, on the second day of culture, some of the cells were recovered from G-Rex (registered trademark) 6M and the cells were counted, and the medium was replaced with the respective medium. On the third day of culture, some of the cells were recovered from G-Rex (registered trademark) 6M and the cells were counted. On the fourth day of culture, some of the cells were recovered from G-Rex (registered trademark) 6M and the cells were counted.
In the expansion culture of item 6 in Example 1, the cell number and survival rate of iPS cell-derived CAR-T cells were measured on days 2, 3, and 4 of expansion culture. The proliferation of iPS cell-derived CAR-T cells was promoted by adding 20 mM carnosine or 100 µM α-tocopherol to a serum-free medium (Table 3). […] The survival rate of iPS cell-derived CAR-T cells was improved by adding 20 mM carnosine or 100 µM α-tocopherol to the serum-free medium (Table 4).

[2] = system: iPS cell-derived CAR-T cells; assay: Proliferation ability of cryopreserved cells in serum-containing medium after thawing (Experimental Example 1-2); settings: expansion culture medium contained 20 mM carnosine or 100 µM α-tocopherol before cryopreservation; result in words
Experimental: In the expansion culture of item 6 of Example 1, cells were collected on the third day of expansion culture of iPS cell-derived CAR-T cells, and the cells were counted. A suspension containing a specified number of cells was centrifuged at 300xg for 5 minutes, and the supernatant was removed. The cell aggregate was suspended at 8,000,000 cells/mL in MEM medium to which Albumin 25% I.V. Injection 12.5 g/50 mL (product name) was added to a final albumin concentration of 5%, an equal amount of CryoStor (registered trademark) CS10 (STEMCELL Technologies) was added to this suspension, and the mixture was cryopreserved. After thawing the cryopreserved cells, the cells were suspended in IMDM medium containing 15% FBS, 2 mM glutamine, ITS (x1), and 50 µg/mL ascorbic acid 2-phosphate sesquimagnesium salt hydrate at 125,000 cells/mL, and cultured under 5% CO2/37°C by using a G-Rex 24-well plate. The number of viable cells and cell survival rate were measured on days 0, 3, and 7 of culture. […] However, the proliferation fold was lower than that of cells expanded in a medium containing 15% FBS.

Row | Structure (SMILES) | proliferation of iPS cell-derived CAR-T cells [1] | survival rate of iPS cell-derived CAR-T cells [1] | proliferation fold after thawing [2] | survival rates from day 0 to day 7 after thawing [2] | proliferation fold compared with a medium containing 15% FBS ([1]; 20 mM carnosine added to serum-free medium)
1 | Cc1c(C)c2c(c(C)c1O)CCC(C)(CCCC(C)CCCC(C)CCCC(C)C)O2 (stereo not drawn) | promoted | improved | improved | improved | 
2 | NCCC(=O)N[C@@H](Cc1cnc[nH]1)C(=O)O | promoted | improved | improved | improved | higher proliferation fold

Reference: EP4835056A1, “CELL CULTURE METHOD” (dated 2026)
